Ab-14 light chain CDR variants: yeast mating affinities

Target: peptide PDVDLGDISGINAS, taken from heptad repeat 2 (HR2) of SARS-CoV-2 spike.

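The parent was found by panning a naive human phage display library on the peptide. These sequences belong to a second round, designed from the earlier measurements on random variants of the parent. Group labels follow the data file (Ctrl: baseline library sampled from a position-specific scoring matrix, with some repeated check sequences; Rand: our label for a block that the file lists under HC and that is probably the random mutants of the ten best first-round binders; En: ensemble of fine-tuned language models; GP: Gaussian process model; HC: hill climbing; Gen: genetic algorithm; Gibbs: Gibbs sampling; a sequence that several methods proposed may carry one label only). Affinity was read by AlphaSeq, a pooled yeast mating assay with surface-displayed partners. Mating (16 h, 30 °C) was followed by selection of diploids and sequencing of their barcodes. Scores were corrected for input abundance and mapped to Kd with protein pairs of known affinity run in the same pool. There are six technical replicates.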

Parent scFv Ab-14: VH joined to VL by a (GGGGS)3 linker. Changes lie in the light chain CDRs alone.
VH: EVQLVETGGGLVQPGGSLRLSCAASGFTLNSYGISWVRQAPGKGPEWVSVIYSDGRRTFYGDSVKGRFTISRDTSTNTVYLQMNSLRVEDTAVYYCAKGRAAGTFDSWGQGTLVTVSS
VL: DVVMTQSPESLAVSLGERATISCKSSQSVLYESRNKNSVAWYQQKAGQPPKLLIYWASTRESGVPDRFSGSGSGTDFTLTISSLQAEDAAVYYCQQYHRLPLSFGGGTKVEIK

Variants are written as CDR1, CDR2 and CDR3 of the light chain (limits as in the source). Parent: KSSQSVLYESRNKNSVA, WASTRES, QQYHRLPLS.
Numbers give log10(Kd / nM), so 0 is 1 nM and 3 is 1 µM. Smaller is tighter.
Replicates are averaged; those with no signal do not enter the mean.
"nd" means that the variant was in the library but no mating with the target was seen in any replicate; the authors take this as a sign of poor binding, and no number exists.

| CDR-L1 | CDR-L2 | CDR-L3 | group | log10 Kd (nM), mean | replicates with signal |
|---|---|---|---|---|---|
| TLGLNTMVESIKKNNVA | EMSTRMN | QQYVRLPLA | En_Gen | nd | 0 of 6 |
| KIQQLVLYESRNKNSVA | DASTRFS | QAYHRLPLS | GP_Gibbs | -0.10 | 6 of 6 |
| KFSQSVMYESRNKNSVA | DASTRES | QQYHRLPLS | GP_Gen | -0.26 | 6 of 6 |
| KSSPSELYESRNKNSVA | EASTRES | QQYHRLPLS | GP_Gen | 0.87 | 6 of 6 |
| LGNAEDQGDDRGMNNIA | GGDTKMA | QQYHRLPLS | En_Gibbs | -0.18 | 6 of 6 |
| KLPQSGLYESRNKNSVA | SASTRES | QQYHRLPLS | GP_Gen | -0.01 | 6 of 6 |
| KESQSWAYESRNKNSVA | GASTRES | QQYHRLPLS | GP_HC | 1.88 | 6 of 6 |
| KLSQSVLYEERNKNSVA | NASQREV | QQYHRLPLS | GP_Gen | -0.05 | 6 of 6 |
| KSSFSVLVESKNKNSVA | GASTRES | QQYHRLPLS | Ctrl | 0.50 | 6 of 6 |
| TISQSFLMENQFKNSVA | QASTREQ | QCYDRLPLS | En_HC | 1.99 | 6 of 6 |
| KIDSQYQHGTDQKKAMA | DSSVRTQ | QQYSRLPLS | En_Gibbs | -0.01 | 6 of 6 |
| QSSPSGLTESRNKNSVA | WASTRES | QQGHRLPLR | Ctrl | nd | 0 of 6 |
| KISQSVLYESRNKNSVA | WAHTRES | QQYHRLPLS | Ctrl | 1.11 | 6 of 6 |
| NMTLQVRNGERNKYNIA | AEVKRVY | QQYQRLPLM | En_Gibbs | 1.98 | 4 of 6 |
| KIMQSLNYEQFNVSNVA | GQETREQ | QSYHRLPLS | En_HC | 1.08 | 6 of 6 |
| KFGQGVLYESRNWNSVA | GASTRES | QQYHRLPLS | GP_HC | 0.04 | 6 of 6 |
| KVSQSQLYESRNKNSVA | QASQRES | QQYHRLPLS | GP_Gen | 0.20 | 6 of 6 |
| KLVNSTLYESRQKNSVA | WASTRES | QQYHRLPLS | Rand | 2.70 | 5 of 6 |
| VLPAHELMLESQIHSIA | NETKRME | QQYSRLPLV | En_Gibbs | 0.61 | 6 of 6 |
| KFSQSVLYESRNKNSVA | WASTRER | QQYHRLPLS | Ctrl | 2.65 | 5 of 6 |
| FIMHFGEESNRNSKNIA | SKDTRCD | QQYDRLPLS | En_Gibbs | 0.53 | 6 of 6 |
| KVSEFMRGLTQRKDSIA | DNTTRNN | QQYDRLPLS | En_Gen | nd | 0 of 6 |
| KQSQQVLFESRNKNSVA | DASTRES | QQYHRLPLS | GP_HC | -0.35 | 6 of 6 |
| KLSQVTHSEIRNKNSIA | EMVTREV | QQYDRLPLS | En_HC | 1.54 | 6 of 6 |
| KYSQLVGEESRNKSSVA | NASTREE | QQYHRLPLS | GP_Gibbs | 0.40 | 6 of 6 |
| KLRMSTLYESRNKNSVA | EASTRES | QQYHRLPLS | GP_HC | -0.10 | 6 of 6 |
| MVSQLMLWGLHAKNSIA | EAETRGN | QQYDRLPLF | En_Gen | 1.08 | 5 of 6 |
| KLVQFMNRGTHHTSNIA | DAVNRLD | QQYYRLPLA | En_Gen | 0.36 | 6 of 6 |
| KSSQSKLYESRNFNSVA | WASTRES | QQYHRLPLS | Ctrl | 1.95 | 4 of 6 |
| KLRQSTLYESRNKNSVA | EASTRES | QQYHRLPLS | GP_HC | 0.00 | 6 of 6 |
| HMQNEWQGNSRAENNVA | ETTVVCD | QQYATLPLQ | En_Gibbs | 0.93 | 6 of 6 |
| MISQLYNMGTFAINSVA | QASLRYN | QQYDRLPLM | En_Gen | nd | 0 of 6 |
| KLSISHLVESINKSNVA | EMVTRES | QQYDRLPLS | En_HC | 2.29 | 4 of 6 |
| SLGLVTMLEEYARNNVA | NNSTREE | QQYDRLPLS | En_Gen | 2.96 | 5 of 6 |
| KLSPSWLYEERNDNSVA | NASQRES | QQYHRLPLS | GP_Gibbs | -0.02 | 6 of 6 |
| KSSQSVLYTSRNKNSVA | HASTRES | QQYHRLPLS | Ctrl | 1.29 | 6 of 6 |
| KLRMSTLYESRNKNSVA | HASTREM | QQYHRLPLS | GP_HC | -0.06 | 6 of 6 |
| KLMQSVLYESRNKNSVA | NASQRES | QQYHRLPLS | GP_Gen | 0.07 | 6 of 6 |
| KLEQSMNYESRNKNSVA | NASTRES | QQYHRLPLS | GP_HC | -0.22 | 6 of 6 |
| AIAGTLHVNQSGVSNVA | QVQMREV | QQYYQLPLG | En_Gibbs | 1.78 | 6 of 6 |
| MISQLGNMGQFAINSVA | QASLRND | QQYDRLPLV | En_Gen | 1.33 | 6 of 6 |
| KISGQYRYESLSKNSIA | EAQTRLK | QQYHRLPLS | En_HC | 0.37 | 6 of 6 |
| KLQFSWWYESRNKNSVA | SASQREV | QQYHRLPLS | GP_Gibbs | 0.09 | 6 of 6 |
| KLSQSHLYESRMKNSVA | DASTRES | QQYHRLPLS | GP_Gen | -0.40 | 6 of 6 |
| KLNQDPVLKTNINNSVA | DHSEVFQ | QQYAHLPLQ | En_Gibbs | 1.93 | 5 of 6 |
| KSSPSVLYESVNKNSVA | NASTRMS | QQYHRLPLS | GP_HC | 0.21 | 6 of 6 |
| KLSQSVLYESRAKNSVA | GASQRES | QQYHRLPLS | GP_Gen | -0.39 | 6 of 6 |
| IVSQLMLWGMHAKNSIA | EAAMRLN | QQYDRLPLF | En_Gen | nd | 0 of 6 |
| KQSQSDLCESRNKNSVA | DASTRES | QQYHRLPLS | GP_HC | 0.91 | 6 of 6 |
| HSSPSVEYESRNKNSVA | NASRRES | QQYHRLPLS | GP_HC | 0.41 | 6 of 6 |
| KISQMSTIESIIHNSVA | QTSTREK | QQYDRLPLS | En_HC | 0.62 | 6 of 6 |
| KSSQSFLYESRWKNNVA | GASQRES | QQYHRLPLS | GP_HC | 0.99 | 6 of 6 |
| KVFPSELGESRNKMSVA | SASTRES | QQYHRLPLS | GP_Gibbs | -0.14 | 6 of 6 |
| KQSQSGMMESRNQNQVA | EASTRLS | QQYHRLPLS | GP_Gibbs | 0.93 | 6 of 6 |
| KSSQSELPESRNKNSVA | DASTRES | QQYWRLPLS | GP_HC | -0.08 | 6 of 6 |
| KSSQSVLYHSRNKNSVA | DASTRNH | QQYHRLPLS | Ctrl | 1.42 | 6 of 6 |
| KSSQSTLYYSRNKNSVA | WASTRES | QQYHRLPLS | Ctrl | nd | 0 of 6 |
| KLYQSVQYESRNKNSVA | NASTRES | QQYHRLPLS | GP_Gen | 0.95 | 6 of 6 |
| KSMQSVLYEDRNKNSVA | WASTRES | QQYHKLPLS | Ctrl | nd | 0 of 6 |
| KLQQSQGYESRNKNSVA | NASTRES | QQYHRLPLS | GP_Gen | 0.18 | 6 of 6 |
| KSSQSTLLESRNMNSVA | WASTRES | QQYHRLPLD | Ctrl | 2.12 | 2 of 6 |

Three control strains display no target. For all light chain designs, 4% of the pairings with them gave a signal, with a median of 2.64 and one signal in twenty below 1.59, so weak values seen in few replicates may be background.
A sequence measured in both rounds can read differently, since the two assays cover different ranges.
The parent sequence was in this pool as ten entries: three were never detected, three once, and four in most replicates, with averages from 0.34 to 2.37.
The authors' rule: three or more of the six replicates give a measured affinity, fewer mean a poor binder.

Source: Li et al. 2023 (doi:10.1038/s41467-023-39022-2), MIT Lincoln Laboratory and A-Alpha Bio; data file from the FLAb repository.